Laboratory results: patent US20180221336A1, “DOSE SPARING KETOROLAC FORMULATIONS AND METHODS AND DEVICES FOR USE WITH SAME” (SteadyMed, Ltd., priority 2017, published 2018)
“And” between values parts separate entries of the source, which are not always exact repeats. Identical values can stand only once.

Conditions: Treatment B: four IM bolus injections of 30 mg every 6 hours

O=C(c1ccccc1)c1ccc2n1CCC2C(=O)O (racemic) [Ketorolac, (±)-5-benzoyl-2,3-dihydro-1H-pyrrolizine-1-carboxylic acid, compound with 2-amino-2-(hydroxymethyl)-1,3-propanediol]
Gmax0-6 (0-6 hr, geom. mean (geom. CV %)): 2.039 (17.9) μg/mL | Gmax6-12 (6-12 hr, geom. mean (geom. CV %)): 1.952 (21.4) μg/mL | Cmax12-18 (12-18 hr, geom. mean (geom. CV %)): 1.955 (26.4) μg/mL | Cmax18-24 (18-24 hr, geom. mean (geom. CV %)): 2.049 (19.3) μg/mL | Cavg (AUCtau/6 hours, geom. mean (geom. CV %)): 1.136 (27.1) μg/mL | AUC0-last (N = 12, geom. mean (geom. CV %)): 27.83 (29.8) μg * hr/mL | Kel (mean ± SD): 0.1029 ± 0.02289 h⁻¹ | CL/F (mean ± SD, listed as Ketorolac tromethamine): 3.083 ± 0.08957 L/h and 3.083 ± 0.8957 L/h | tmax0-6 (median (minimum, maximum)): 0.5000 (0.249, 1.25) hr | tmax6-12 (median (minimum, maximum)): 6.250 (6.25, 6.75) hr | tmax12-18 (median (minimum, maximum)): 12.25 (12.2, 13.0) hr | tmax18-24 (median (minimum, maximum)): 18.50 (18.3, 19.0) hr | Cmax—all (whole sampling interval, N = 12, geom. mean (geom. CV %)): 2.240 (17.6) μg/mL
